Results on one molecule are retold here after PMC8012336, “An automated and high-throughput-screening compatible pluripotent stem cell-based test platform for developmental and reproductive toxicity assessment of small molecule compounds” (Cell Biology and Toxicology, 2020).

For this assay, the system named is mESC-D3. The assay is described as follows: Automated mESC-D3 differentiation assay in 96-well round-bottom ultra-low attachment plates (cardiomyocyte contraction, day 10). The conditions noted are these: beating cardiomyocytes at day 10, in brackets the two independent runs. Type of assay: cell-based, mouse. The procedure:
The mESC-D3 differentiation assay was automated in 96-well round-bottom ultra-low attachment plates (Costar, Cat. No. 7007) on the lab automation platform Fluent (Tecan). The method was set up for testing up to three different compounds in an automated procedure, resulting in maximal 9 plates that were being processed. A 7-point dilution series of test compounds and control solutions were prepared in PBS or DMSO under the laminar flow, transferred to a 96-well 0.5 ml Masterblock plate, and placed on the Fluent worktable. There the compounds were further diluted in growth media in a 96-well 2 ml Masterblock plate using the FCA. Of the compound solution, 10 μl/well were dispensed into a 96-well round well ultra-low attachment plate. In the meantime, a suspension of mESC-D3 (3.75 × 10^4 cells/ ml) was prepared in growth media and was placed in a trough on the worktable. The cell suspension was transferred into the 96-well round-bottom ultra-low attachment plate (40 μl/well) using the FCA. […] After further 3 days of incubation (= day 10 of the assay) cardiomyocyte contraction was determined in each well under the light microscope. Afterward, cells were stained and analyzed using the Opera High Content Screening System (PerkinElmer). […]

As for `Cn1c(=O)c2c(ncn2C)n(C)c1=O` [Caffeine, caffeine], the “Differentiation assay in round bottom ULA microplate ID50 mESC-D3” value was > 200 (> 200; > 200) μg/ml.
